A selection: hits, their analogues and other compounds. The true share with any hit is near 13%.
Sfp PPTase inh – qHTS Assay for Inhibitors of Bacillus subtilis Sfp phosphopantetheinyl transferase (PPTase) | 4'-phosphopantetheinyl transferase ffp (Bacillus subtilis), Q9F4F7 | AID 1490, 2009 | actives 3.5% (n = 310,000) | Biochemical Sfp PPTase activity, qHTS | Potency, µM, for inactives: max response, negative = inhibition, most hits filed as inhibitors; active = well fitted inhibition curve with a large enough effect; inconclusive = small, poorly fitted or top-dose-only effect, or another doubt; inactive = no such curve, though single readings can be large or run the other way;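 also: the enzyme is Sfp with the accession as filed and its product quenches rhodamine fluorescence; potency is read from the fitted curve at half-maximal effect; 0% = enzyme reaction without inhibitor and -100% = no enzyme wells; top concentration of the series not given in the record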
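Fluorescence-quenching assay: 15 nM Sfp-PPTase preincubated 15 min at room temperature with compound, then 5 uM rhodamine-CoA and 12.5 uM BHQ-2-labelled YbbR peptide added. Fluorescence (ex 525/em 598 nm) read at start and after 30 min; difference gives rate.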
ALDH1A1 inh – blocks purified human ALDH1A1 activity | Purified ALDH1A1, NADH fluorescence, propionaldehyde substrate | P00352 | 220,000 compounds, 7.3% hits | Potency, µM (doses to about 75.3 µM), for the others: at the top dose activity, negative = inhibition, most hits filed as inhibitors; active means well fitted inhibition curve with a large enough effect, not every such curve was filed as active; inconclusive means small, poorly fitted or top-dose-only effect, or another doubt; inactive means no such curve, though single readings can be large or run the other way;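 further: potency means the concentration at half of the fitted maximal effect; plate controls were no enzyme wells and a reference inhibitor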
JMJD2E inh – JMJD2E (human) inhibition. B2RXH2. Potency, µM (titrated, usually from 57.1 µM), inactives show at the highest dose activity change, negative = inhibition, usual class: inhibitors. 230,000 compounds, 1.6% hits. AID 2147. JMJD2E catalytic domain, FDH-coupled NADH fluorescence (FDH is formaldehyde dehydrogenase);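 further: potency means the concentration at half of the fitted maximal effect; 0% = wells with enzyme and -100% = buffer wells without enzyme; nearly all actives have a fitted effect of over 50% in size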
miR-21 reporter – miR-21 reporter, rising signal; HeLa miR-21 FLuc reporter, luciferase, 48 h; Potency, µM (top dose mostly 38.3 µM), without a hit: at the top dose reporter change, positive = more light; 340,000 tested, under 10 active; active = well fitted rising curve with a large enough effect; inconclusive = small, poorly fitted or top-dose-only effect; inactive = no such curve, though single readings can be large or run the other way;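 note: % of control where 0% means no effect; miR-21 action dims this reporter so a rising signal means less miR-21 action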
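HeLa miR-21-FLuc reporter line, endogenous miR-21; 2000 cells/well in DMEM/10% FBS; compound titration up to ~40uM final, 48 h, 37 degree Celsius; luciferase detection reagent, 15 min lysis, CCD luminescence.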
G9a block – inhibitors of human histone lysine methyltransferase G9a; G9a H3K9 monomethylation, AlphaScreen, 2 h; Potency, µM (top dose mostly 102 µM), inactives show top-dose activity, negative = inhibition, usual class: inhibitors; 350,000 compounds, 8.8% hits; AID 504332; further: potency means the concentration at half of the fitted maximal effect; on the % scale 0 is the no-effect control and ±100 the full control effect; nearly all actives have a fitted effect of over 75% in size
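G9a (20 nM) preincubated 15 min RT with compounds, then 500 nM biotinylated H3K9 peptide and 20 uM SAM added; 2 h RT reaction. Monomethyl-H3K9 product detected by AlphaScreen with anti-H3K9me1 antibody, streptavidin donor and anti-rabbit IgG acceptor beads.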
LMNA splice mod – LMNA splicing modulation | Potency, µM (titrated, usually from 46.1 µM), for inactives: at the top dose ratio change, negative = inhibition, hits mostly inhibitors | HeLa LMNA splicing GFP/RFP minigene ratio, 48 h | 200,000 compounds, 0.01% hits; active means well fitted inhibition curve with a large enough effect in the signal ratio, with a control signal flat, not every such curve was filed as active; inconclusive means small, poorly fitted or top-dose-only effect, or effect the other way, or a change in a side signal; the % refers to the signal ratio; further: potency means the concentration at half of the fitted maximal effect; on the % scale 0 is the no-effect control and ±100 the full control effect
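S3 HeLa stable clones carrying a lamin A-EGFP splicing minigene plus DsRed2 were seeded at 600 cells/well in Opti-MEM with 2% FBS, pin-dosed and incubated 48 h at 37°C. Acumen cytometry (488 nm) gave the GFP/RFP total-intensity ratio.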
* hit, by the source's call; [ ] = remark or other dose. Unless noted, the call rests on the fitted dose curve; in most records, active means well fitted curve in the direction sought with a large enough effect; inconclusive means small, poorly fitted or top-dose-only effect, or another doubt; inactive means no such curve, though single readings can be large; an effect the other way counts as inactive or inconclusive.

Results for Cc1ccc(C2CC(=O)N(Cc3ccccc3F)c3c2c(C)nn3-c2nc(C)cc(C)n2)cc1 (stereo not drawn) ?
miR-21 reporter: -8%; G9a block: -21%[59 µM]; LMNA splice mod: inconclusive

Results for Cn1c(-c2ccc3c(c2)OCO3)cnc1NCc1ccccc1 ?
Sfp PPTase inh: -21%; ALDH1A1 inh: inconclusive; JMJD2E inh: inconclusive; miR-21 reporter: -21%; G9a block: 25µM*; LMNA splice mod: 17%

How did Cn1c(-c2ccc3c(c2)OCO3)cnc1NCc1cccc(Cl)c1 do in these assays?
Sfp PPTase inh: -11%; ALDH1A1 inh: 14µM*; JMJD2E inh: inconclusive; miR-21 reporter: -33%; G9a block: 28µM*; LMNA splice mod: -6%

What do the screens show for `Cn1c(-c2cccc([N+](=O)[O-])c2)cnc1NCc1cccc(F)c1`?
Sfp PPTase inh: -24%; miR-21 reporter: 0%; G9a block: 25µM*

What do the screens show for `Cn1c(-c2ccc3c(c2)OCO3)cnc1NC(=O)CCC(=O)NCCc1ccccc1`?
Sfp PPTase inh: -3%; ALDH1A1 inh: 1%; JMJD2E inh: inconclusive; miR-21 reporter: -26%; G9a block: -21%; LMNA splice mod: -4%

Results for CCCCOc1ccc(C(=O)N2CCN(CCc3ccncc3)CC2)cc1 ?
miR-21 reporter: -29%; G9a block: -4%[59 µM]; LMNA splice mod: 6%[46 µM]

Results for Cc1ccc(Cl)cc1NC(=O)N1CCc2cc(S(=O)(=O)N3CCC(C)CC3)ccc21 ?
miR-21 reporter: -5%; G9a block: 9%[59 µM]

What do the screens show for `COc1ccccc1NC(=O)c1cccc2c(Br)cccc12`?
Sfp PPTase inh: 9%; miR-21 reporter: -11%; G9a block: 34%

What do the screens show for `O=C(/C=C/Sc1ccccc1)c1ccccc1`?
Sfp PPTase inh: -2%; ALDH1A1 inh: 7.9µM*; JMJD2E inh: -7%; miR-21 reporter: inconclusive; G9a block: 3%[59 µM]; LMNA splice mod: inconclusive

Results for O=C(/C=C/Sc1ccccc1)c1ccc(Cl)cc1 ?
Sfp PPTase inh: -7%; ALDH1A1 inh: inconclusive; JMJD2E inh: -3%; miR-21 reporter: 11%; G9a block: -44%[59 µM]; LMNA splice mod: inconclusive

Results for CCOc1cccc2sc(N(CCN(C)C)C(=O)c3ccc4ccccc4c3)nc12 ?
Sfp PPTase inh: -7%; miR-21 reporter: -2%; G9a block: 50µM*

Results for COc1ccc2sc(N(CCN(C)C)C(=O)c3ccc4ccccc4c3)nc2c1 ?
Sfp PPTase inh: -11%; miR-21 reporter: -16%; G9a block: 40µM*

Results for COc1ccc(OC)c2sc(N(CCN(C)C)C(=O)c3cc(Cl)sc3Cl)nc12 ?
Sfp PPTase inh: 56µM*; ALDH1A1 inh: -9%; JMJD2E inh: -4%; miR-21 reporter: -2%; G9a block: inconclusive; LMNA splice mod: 2%[9.22 µM]

Results for Cc1cc(C)c2nc(N(CCN(C)C)C(=O)c3ccc4ccccc4c3)sc2c1 ?
Sfp PPTase inh: 56µM*; miR-21 reporter: -7%; G9a block: 40µM*

Results for COc1ccc2sc(N(CCN(C)C)C(=O)c3cc(Cl)sc3Cl)nc2c1 ?
Sfp PPTase inh: -24%; ALDH1A1 inh: inconclusive; JMJD2E inh: -2%; miR-21 reporter: -8%; G9a block: inconclusive; LMNA splice mod: inconclusive

Results for CN(C)CCCN(C(=O)c1ccc(C(=O)c2ccccc2)cc1)c1nc2cc3c(cc2s1)OCCO3 ?
Sfp PPTase inh: -18%; miR-21 reporter: -20%

How did CC1(C)CC(=O)N(c2ccc(Cl)cc2Cl)C(=O)C1 do in these assays?
Sfp PPTase inh: 13%; miR-21 reporter: -7%; G9a block: -1%

What do the screens show for `Cc1ccc2nc3nc4ccc[nH]c4cc3c2c1`?
Sfp PPTase inh: -5%; ALDH1A1 inh: -1%[13.5 µM]

Results for CN(C)CCN(C(=O)c1ccc2ccccc2c1)c1nc2c(F)cccc2s1 ?
Sfp PPTase inh: -4%; miR-21 reporter: -6%; G9a block: 40µM*

Two consecutive records already listed, for reference:
Results for COc1ccc2sc(N(CCN(C)C)C(=O)c3cc(Cl)sc3Cl)nc2c1 ?
Sfp PPTase inh: -24%; ALDH1A1 inh: inconclusive; JMJD2E inh: -2%; miR-21 reporter: -8%; G9a block: inconclusive; LMNA splice mod: inconclusive

Results for CN(C)CCCN(C(=O)c1ccc(C(=O)c2ccccc2)cc1)c1nc2cc3c(cc2s1)OCCO3 ?
Sfp PPTase inh: -18%; miR-21 reporter: -20%

Bioassay records as filed in PubChem BioAssay.
